Assays:
[1] = test system: human skeletal muscle cells; experiment: Glucose uptake (3H-2-deoxyglucose) in human skeletal muscle cells; type: cell-based; conditions: caffeines 0.01 mg/mL, insulin 100 nM
Description: (§1) The effect of the crude caffeine extract of Example 1 on glucose uptake in both human adipocytes (fat) and skeletal muscle cells (SMC) was tested (Zen Bio Research, Triangle Park, N.C.).
(§2) Data were analyzed by one-way ANOVA followed by Tukey's post hoc test for multiple comparisons. In FIG. 6, results are expressed as mean±SD. The asterisk * denotes P<0.05 compared with human skeletal muscle cells; the carrot top A denotes P<0.05 compared with untreated human adipocytes.
(§3) Glucose uptake. The in vitro effects of crude caffeine on glucose uptake were assessed with human adipocytes and skeletal muscle cells (Zen-Bio, Research Triangle Park, N.C.). Briefly, primary human subcutaneous adipocytes or primary human myoblasts were differentiated in 96-well microplates. […] All samples, including the positive and negative controls, were tested in triplicate. After a 2-h incubation at 37° C. and 5% CO2, the cells were washed with PBS and lysed. The cell lysate was mixed with scintillation fluid and radioactivity of each well was measured as counts per minute (CPM).

[2] = test system: human adipocytes; experiment: Glucose uptake (3H-2-deoxyglucose) in human adipocytes; type: cell-based; conditions: caffeines 0.01 mg/mL, insulin 100 nM
Description: as §1, §2, §3

With insulin the “fold increase in glucose uptake” value [1] was 2.06 fold and the “fold increase in glucose uptake” value [2] was 1.6 fold.
